The target of test [1] is membrane-bound endogenous human CEACAM5 and CEACAM6 on BxPC3 cells. In words: flow cytometry on BxPC3 cells with against without 100 nM soluble CEACAM5.
Test [2] deals with membrane-bound endogenous human CEACAM5 and CEACAM6 on LS 174T cells. In words: flow cytometry on LS174T cells with against without 100 nM soluble CEACAM5. In general terms: In flow cytometry, cells or beads pass a laser one at a time.

Regarding PR303561 (Tusamitamab) (antibody), the figures for the fold change of EC50 at the presence of 100 nM soluble protein in test [1] and in test [2] were 6.9 fold and 7.3 fold, respectively.

The values are drawn from patent US20260258125A1.
